Results taken from PubChem BioAssay AID602248 (The Scripps Research Institute Molecular Screening Center, 2012).
Only a part is listed here, and it is no random draw. Some structures show a salt or complex split into parts, the way the source records it. The source made the active and inactive calls. Rule as the data show it: active = activation above about 15%; inactive = the rest.

Assay: counter-screen for M1 agonists: effect in parental CHO-K1 cells (AID 602248);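 also: untransfected CHO-K1 host cells lacking M1 receptor as counterscreen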
Conditions: Fluo-8 calcium fluorescence, at 3 µM, hits give high values, scaled to maximal ATP response, vehicle zero
In the case of Cc1c([N+](=O)[O-])cc([N+](=O)[O-])c(Br)c1[N+](=O)[O-], the activation is reported as inactive: -0.08%. In the case of COc1ccc(OP(C)(=O)Nc2ccc(SC(F)(F)F)cc2)cc1 (stereo not given), the activation is reported as inactive: 3.55%. For CCOC(=O)c1ccc(NP(C)(=O)Oc2ccc(F)cc2)cc1 (stereo not given), the activation was inactive: 1.26%. In the case of CCN(CC)CCCNc1ccccc1[N+](=O)[O-].O=[N+]([O-])c1cc([N+](=O)[O-])c(O)c([N+](=O)[O-])c1, the activation is reported as inactive: 0.48%. With COc1ccc2c(c1O)-c1c(O)c(OC)cc3c1[C@H](C2)[N+](C)(C)CC3.O=[N+]([O-])c1cc([N+](=O)[O-])c([O-])c([N+](=O)[O-])c1[O-] the activation was inactive: 0.07%. With O=C(OCCN1CCN(CCOCc2ccccc2)CC1)C(O)(c1ccccc1)c1ccccc1 the activation was inactive: 3.51%. For O=C(OC1CN2CCC1CC2)c1ccc([N+](=O)[O-])cc1 (stereo not given), the activation was inactive: 0.14%. With CC(C)c1ccc(OP(C)(=O)Nc2ccc(SC(F)(F)F)cc2)cc1 (stereo not given) the activation was inactive: 0.04%. For CP(=O)(Nc1ccccc1F)Oc1ccccc1 (stereo not given), the activation was inactive: 0.02%. In the case of O=[N+]([O-])c1cc([N+](=O)[O-])c(Nc2ccc(Cl)cc2)c([N+](=O)[O-])c1, the activation is reported as inactive: 11.8%. In the case of O=[N+]([O-])c1cc([N+](=O)[O-])c(C(F)(F)F)c([N+](=O)[O-])c1O, the activation is reported as inactive: 0.16%. For Cc1ccccc1NP(C)(=O)Nc1ccccc1C, the activation was inactive: 0.23%. In the case of CP(=O)(Nc1ccc2c(c1)OCCO2)Oc1ccccc1 (stereo not given), the activation is reported as inactive: 2.18%. In the case of CCOP(C)(=S)SCC(=O)NC(C)(CC)C(=O)O (stereo not given), the activation is reported as inactive: 0.37%. With CP(=O)(Nc1ccc(SC(F)(F)F)cc1)Oc1ccc(F)cc1 (stereo not given) the activation was inactive: 4.23%. In the case of Cc1c(C(c2ccc3c(c2)OCO3)c2c(C)n(C)n(-c3ccccc3)c2=O)c(=O)n(-c2ccccc2)n1C.O=[N+]([O-])c1cc([N+](=O)[O-])c(O)c([N+](=O)[O-])c1, the activation is reported as inactive: 0.96%. For O=[N+]([O-])c1cc([N+](=O)[O-])c(NCC2CCS(=O)(=O)C2)c([N+](=O)[O-])c1 (stereo not given), the activation was inactive: 1.29%. In the case of Cc1cc(-c2cccc3ccccc23)c(C)cn1.O=[N+]([O-])c1cc([N+](=O)[O-])c(O)c([N+](=O)[O-])c1, the activation is reported as inactive: -0.35%. For O=[N+]([O-])c1ccc(OP2(=O)COCCO2)cc1 (stereo not given), the activation was inactive: 0.74%. For COc1ccc(NP(C)(=O)Oc2ccccc2OC)cc1 (stereo not given), the activation was inactive: 0.27%. With CN(C)CCOC(=O)C(O)(c1ccccc1)C1CCCCC1 (stereo not given) the activation was inactive: 11.1%. With CN(C)C1(CNC(=O)c2ccc(Cl)c(S(N)(=O)=O)c2)CCCCC1 the activation was inactive: 1.6%. For COc1ccc(OP(C)(=O)Nc2cccc(Br)c2)cc1 (stereo not given), the activation was inactive: -0.21%. In the case of CP(=O)(OC12CC3CC(CC(C3)C1)C2)OC12CC3CC(CC(C3)C1)C2, the activation is reported as inactive: 2.66%. In the case of CCOC(=O)c1ccc(NP(C)(=O)Oc2ccc(Cl)cc2)cc1 (stereo not given), the activation is reported as inactive: 1.32%. For CN(C)C(=O)c1c([N+](=O)[O-])cc([N+](=O)[O-])cc1[N+](=O)[O-], the activation was inactive: 0.34%. With CP(=O)(Nc1ccc(Cl)cc1)Oc1ccc(F)cc1 (stereo not given) the activation was inactive: 0.89%. For CC(C)(C)c1ccc(OP(C)(=O)O)cc1, the activation was inactive: 1.05%. For COc1ccccc1OP(C)(=O)Nc1ccccc1Br (stereo not given), the activation was inactive: -0.2%. With CCc1ccc(OP(C)(=O)Nc2cccnc2)cc1 (stereo not given) the activation was inactive: -0.16%. With CP(=O)(Oc1ccccc1)N1CCOC1=O (stereo not given) the activation was inactive: 0.08%. With O=C(OCCCN1CCCC1)C(O)(c1ccccc1)C1CCCCC1 (stereo not given) the activation was inactive: 0.8%. With COc1ccccc1OP(C)(=O)Nc1c(C)n(C)n(-c2ccccc2)c1=O (stereo not given) the activation was inactive: 0.17%. For COc1ccc(OP(C)(=O)Nc2ccc(Br)cc2)cc1 (stereo not given), the activation was inactive: 2.63%. With CCN(CC)CC(O)COC(=O)C(O)(c1ccccc1)C1CCCCC1 (stereo not given) the activation was inactive: 0.32%. With CCc1ccc(OP(C)(=O)O)cc1 the activation was inactive: -0.26%. In the case of COc1ccccc1OP(C)(=O)Nc1ccc(C)cc1C (stereo not given), the activation is reported as inactive: -0.2%. For CP(=O)(Nc1ccccn1)Oc1ccccc1 (stereo not given), the activation was inactive: -0.18%. In the case of O=[N+]([O-])c1cc([N+](=O)[O-])c(Nc2ccccn2)c([N+](=O)[O-])c1, the activation is reported as inactive: 3.69%. For Cc1c(NP(C)(=O)Oc2ccc(C(C)C)cc2)c(=O)n(-c2ccccc2)n1C (stereo not given), the activation was inactive: 0.21%. For CN(C)CCOC(=O)C(O)(c1ccccc1)C1CCCC1 (stereo not given), the activation was inactive: 4.89%. With COc1ccc(OP(C)(=O)Nc2ccccn2)cc1 (stereo not given) the activation was inactive: 0.76%. For COc1ccccc1OP(C)(=O)Nc1ccc(Br)cc1 (stereo not given), the activation was inactive: 4.16%. With CP(=O)(OCCOc1ccccc1)OCCOc1ccccc1 the activation was inactive: 0.83%. In the case of CCCCCCCCCCCCCCCC1C[N+](C)(C)CCOP(C)(=O)O1 (stereo not given), the activation is reported as inactive: 3.36%. In the case of CP(=O)(Nc1ccc(Cl)cc1Cl)Oc1ccccc1 (stereo not given), the activation is reported as inactive: 0.51%. In the case of COc1ccc(OP(C)(=O)Nc2ccccc2Br)cc1 (stereo not given), the activation is reported as inactive: 0.56%. For COc1ccccc1OP(C)(=O)Nc1ccc(C)c(C)c1 (stereo not given), the activation was inactive: 0.57%. In the case of Cc1cc(C)cc(OP(C)(=O)Nc2cccc(C(F)(F)F)c2)c1 (stereo not given), the activation is reported as inactive: -0.3%. In the case of O=C1C(O)=C([N+](=O)[O-])C(=O)C(O)=C1[N+](=O)[O-], the activation is reported as inactive: 0.69%.
